Experimental data taken from patent US4194006A, “Therapeutic application of acetyl-d,l-carnitine and other acyl derivatives of d,l-carnitine” (priority 1977, dated 1980).

What was measured:
in vivo = conditions: mouse, iv
Source text: (§1) The tolerance of acetyl-d,l-carnitine and of the other aforementioned acyl derivatives of the formula (I), as well as their salts were investigated by comparing the LD50 obtained by administering the compounds intravenously in mice with the LD50 obtained under the same experimental conditions by intravenous injection of d,l-carnitine.

mice = assay: in vivo; conditions: mouse, iv
Source text: as §1

isolated rabbit hearts = assay: coronary vasodilator effect: coronary flow, isolated heart (Langendorff); conditions: 5·10^-6 g/lt
Protocol: The cardiokinetic effect on isolated heart was also investigated as follows. Rabbit hearts isolated by the Langendorff method were perfused with oxygenized ringer solution at 38.2° C. The isometric contractions, electrocardiogram and coronary flow were recorded using a "Battaglia-Rangoni" polygraph. By removing the oxygen from the perfusion fluid, metabolic damage was induced in the cardia muscle, up to an 80% reduction in the cardiac contractile force.
Under these conditions of prolonged anoxia the aerobic glycolysis of the myocardium is slowed down, accompanied by the storage of acid catabolites due to both the accumulation of pyruvic acid and its conversion to lactic acid which cannot be utilized because of the depression of pyridine enzymes, such as LDH (lactodehydrogenase). This has repercussions on the anaerobic glycolysis affecting an ever increasing number of enzymes, accompanied by a progressive and increasingly critical exhaustion of the myocardium. Thus a whole series of cardiac muscle fatigue levels occurs which can be observed by the behavior of the examined parameters, namely the contractile force, coronary flow, heart rate and cardiac rhythm. As soon as the contractile force was reduced by 80%, the perfusion fluid was once again oxygenized either without adding other compounds (controls) or with the addition of the compounds under examination. […]

Compound | LD50 (in vivo) [mg/kg] | tolerance (mice) | Coronary flow, Mean ± S.E. (isolated rabbit hearts) [%]
CCC(=O)OC(CC(=O)[O-])C[N+](C)(C)C (racemic) [propionyl-d,l-carnitine] | ~761 | better tolerance properties | –
CCCCCC(=O)OC(CC(=O)[O-])C[N+](C)(C)C (racemic) [hexanoyl-d,l-carnitine] | ~695 | – | –
CCCC(=O)OC(CC(=O)[O-])C[N+](C)(C)C (racemic) [butyryl-d,l-carnitine] | ~742 | better tolerance properties | 74.21 ± 8.78
CCCCCCCC(=O)OC(CC(=O)[O-])C[N+](C)(C)C (racemic) [octanoyl-d,l-carnitine] | ~630 | – | –
